In experiment [1] the target is T1, E-selectin (E-selectinLEC2 construct) (Homo sapiens, UniProt P16581).
T1 construct: a construct consisting of the lectin domain, the EGF like domain, and the first two short consensus repeats (E-selectinLEC2)
T1 sequence (P16581 22-301 limits assumed): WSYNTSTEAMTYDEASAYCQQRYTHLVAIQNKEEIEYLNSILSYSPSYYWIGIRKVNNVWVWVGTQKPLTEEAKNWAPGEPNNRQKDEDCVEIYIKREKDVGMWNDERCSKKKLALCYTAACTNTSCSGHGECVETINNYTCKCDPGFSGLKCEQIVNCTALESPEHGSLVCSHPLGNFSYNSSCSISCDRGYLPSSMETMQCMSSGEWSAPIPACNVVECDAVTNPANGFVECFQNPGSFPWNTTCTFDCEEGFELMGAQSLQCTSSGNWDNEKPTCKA
As to the kind of experiment: Microscale Thermophoresis (MST) affinity assay for E-selectin. As to conditions: labeled E-selectinLEC2, HEPES buffer pH 7.4, 1 mM CaCl2, 25° C.; read-out: Binding Affinity (KD) to E-Selectin Determined by MST. How it is done:
For E-selectin, a construct consisting of the lectin domain, the EGF like domain, and the first two short consensus repeats (E-selectinLEC2) was labeled using the amine reactive protein labeling kit BLUE-NHS from NanoTemper Technologies GmbH (Munich, Germany).
The Microscale Thermophoresis (MST) experiments were carried out in a HEPES buffer adjusted to pH 7.4 containing 150 mM NaCl, 1 mM CaCl2 and 0.05% Tween 20 at a temperature of 25° C. with 50% LED power, 50% laser power, laser on time of 30 seconds, and laser off time of 5 seconds with standard treated capillaries. A fixed concentration of the labeled E-selectinLEC2 protein was incubated for 20 minutes with a 15-datapoint […] 1:1 dilution of ligand starting about 30 times above the expected KD. The observed data points were fitted using the single-site binding function of Alan Cooper, Tutorial Chemistry Texts, Vol 16: Biophysical Chemistry; Royal Society of Chemistry: Cambridge, 2004.

Experiment [2] has as its target T2, P-selectin (P-selectin/IgG) (Homo sapiens, UniProt P16109).
T2 sequence (P16109 42-771): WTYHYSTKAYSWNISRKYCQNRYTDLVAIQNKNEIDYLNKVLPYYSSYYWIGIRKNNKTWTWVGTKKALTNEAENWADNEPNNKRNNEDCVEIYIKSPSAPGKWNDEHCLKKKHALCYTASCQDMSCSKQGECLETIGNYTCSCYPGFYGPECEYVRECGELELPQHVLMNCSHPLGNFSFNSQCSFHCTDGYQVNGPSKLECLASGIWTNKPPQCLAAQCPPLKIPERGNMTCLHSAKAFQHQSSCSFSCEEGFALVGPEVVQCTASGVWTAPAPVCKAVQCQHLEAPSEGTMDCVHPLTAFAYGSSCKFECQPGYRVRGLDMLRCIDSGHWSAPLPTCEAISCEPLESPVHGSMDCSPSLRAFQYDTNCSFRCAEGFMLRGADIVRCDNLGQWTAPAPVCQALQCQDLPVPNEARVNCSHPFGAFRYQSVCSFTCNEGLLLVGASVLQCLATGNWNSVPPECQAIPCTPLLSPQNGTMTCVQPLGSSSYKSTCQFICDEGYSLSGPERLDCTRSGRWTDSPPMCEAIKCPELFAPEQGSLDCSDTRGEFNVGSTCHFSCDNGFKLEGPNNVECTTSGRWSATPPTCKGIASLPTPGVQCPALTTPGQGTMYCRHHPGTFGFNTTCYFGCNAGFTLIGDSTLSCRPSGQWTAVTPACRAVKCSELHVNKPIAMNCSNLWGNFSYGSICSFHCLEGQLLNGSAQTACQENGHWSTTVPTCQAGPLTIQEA
As to the kind of experiment: Cell-free P-selectin ligand competitive binding assay (sLe^a-PAA). The conditions noted are these: P-selectin/IgG coated plate, sLe^a-PAA streptavidin-POD complex, 25° C., 2 hours; read-out: IC50, Binding Affinity to P-Selectin Determined by Competitive Binding Assay. The protocol:
The cell-free P-selectin ligand binding assay was adapted from Weitz-Schmidt et al (G. Weitz-Schmidt, D. Stokmaier, G. Scheel, N. E. Nifant'ev, A. B. Tuzikov, N. V. Bovin, Anal Biochem 1996, 238, 184-190). A MaxiSorp 96-well flat bottom microtiter plate purchased from Nalge Nunc International (Penfield, N.Y., USA) was coated with P-selectin/IgG by incubation with 100 μL/well of the purified protein at a concentration of 3 μg/ml in 10 mM HEPES-NaOH pH 7.4, 150 mM NaCl, 1 mM CaCl2 (HAB-Ca^+). After an overnight incubation at 4° C., the plate was washed three times with HAB-Ca^+ followed by a 2 hour incubation with 200 μL/well of a solution of 3% BSA in HAB-Ca^+ at room temperature to block nonspecific binding. During this incubation, inhibitory test compounds, diluted in HAB-Ca^+, were titrated by a twofold serial and mixed with an equal volume of 0.2 μg/ml of a preformed complex of a biotinylated sialyl Lewis' polyacrylamide polymer (sLe^a-PAA) purchased form GlycoTech Inc. (Gaithsburg, Md., USA) and horseradish peroxidase-labeled streptavidin (streptavidin-POD) purchased from Roche (Rotkreuz, Switzerland). […] The optical density was determined at 450 nm (SpectraMax). […]

As a reminder, the Kd is the equilibrium constant for the complex coming apart. In general, IC50 refers to the concentration that gives 50% inhibition. With “sialyl-Lewis^x [sLe^x, reference compound]”, in experiment [1], the Kd stood at 687 µM. The IC50 in experiment [2] was greater than 7 mM.
